Data as given in patent US20130171163A1 (published 2013).

Biological target: T1, leukocyte antigen-related protein tyrosine phosphatase (LAR) (human, UniProt P10586)
T1 construct: Endogenous protein in HUVEC lysates; The background section describes LAR as a non-covalent complex of a 150-kDa E subunit and an 85-kDa P subunit, cleaved from a 200-kDa proprotein; In the functional assays, full-length human LAR was overexpressed from adenovirus (AdLAR) or knocked down with siRNA; also called LAR PTP; leukocyte antigen-related (LAR) PTP
Assay: co-immunoprecipitation from HUVEC lysates with anti-cLAR antibody, Western blot with anti-VEGFR2
Procedure: C, Lysates from HUVECs stimulated with or without VEGF (20 ng/ml) for 10 min were immunoprecipitated with polyclonal antibodies against anti-cLAR or control goat IgG, followed by immunoblotting with anti-VEGFR2 (top), VEGFR3 (middle) or anti-cLAR antibody (bottom). D, Equal amounts of GST or GST-cLAR fusion protein were immobilized on glutathione-Sepharose beads and then incubated with HUVEC lysates containing equal amount of protein. GST or GST-cLAR-associated proteins were analyzed by Western blotting using anti-IGF-1Rβ antibody. The same membrane was reprobed with anti-GST antibody (E), anti-VEGFR2 (F, top) or anti-VEGFR3 (F, bottom) antibodies.

B1: VEGFR2 (receptor)
chain: not shown
notes: Endogenous protein in HUVEC lysates, with or without VEGF treatment (20 ng/ml, 10 min)
binding result: no binding
